The values that follow are results of earlier work, collected in article PMC7982615, “Phase 1 study of telisotuzumab vedotin in Japanese patients with advanced solid tumors” (Cancer Medicine, 2021).

This data set deals with MET exon 14‐mutated NSCLC. Further details: method as in ref 25 = [25]; 25 Paik PK , Veillon R , Cortot AB , et al. Phase II study of tepotinib in NSCLC patients with MET ex14 mutations . J Clin Oncol . 2019; 37 ( suppl 15 ):abstract 9005. The note with it: evaluable patients; cited from earlier work.

On to `CN1CCC(COc2cnc(-c3cccc(Cn4nc(-c5cccc(C#N)c5)ccc4=O)c3)nc2)CC1` [tepotinib], for which the “ORR by independent review committee” value was 51.4%.
